## CycPeptMPDB entries from one study

Values of Kelly et al. 2021, doi:10.1021/jacs.0c06115, as listed in CycPeptMPDB.

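The data file gives no further conditions (lipid, pH, time, direction or concentration), and values from different papers need not be comparable. Other peptides of the study may be missing here. Peptides that the database sets to -10, its floor, are left out.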

PAMPA measures passive passage through an artificial lipid membrane.
Permeability is given as log10 of P in cm/s; higher (less negative) is more permeable.

structure (SMILES),PAMPA (log10 cm/s)
CC(=O)N1CCC[C@H]1C(=O)N[C@@H]1C(=O)N(C)[C@H](CC(C)C)C(=O)N[C@H](CC(C)C)C(=O)N(C)[C@H](CC(C)C)C(=O)N(C)[C@@H](CC(C)C)C(=O)N(C)[C@@H](C)C(=O)N[C@@H](CC(C)C)C(=O)N2CCC[C@@H]2C(=O)O[C@@H]1C,-5.51
CC[C@H]1NC(=O)[C@H](Cc2ccccc2)NC(=O)[C@@H](CC2CCCCC2)NC(=O)[C@@H](NC(=O)[C@@H](CC(C)C)N(C)C(=O)[C@@H]2CCCN2C(C)=O)[C@@H](C)OC(=O)[C@@H]2CCCN2C(=O)[C@H](CC(C)C)NC(=O)[C@@H](C)N(C)C1=O,-5.41
CCC[C@H]1NC(=O)[C@@H](NC(=O)[C@@H](CC(C)C)N(C)C(=O)[C@@H]2CCCN2C(C)=O)[C@@H](C)OC(=O)[C@@H]2CCCN2C(=O)[C@H](CC(C)C)NC(=O)[C@@H](C)N(C)C(=O)[C@@H](CC2CCCCC2)NC(=O)[C@H](CC(C)C)NC1=O,-5.69
CC(=O)N1CCC[C@H]1C(=O)N(C)[C@H](CC(C)C)C(=O)N[C@@H]1C(=O)N[C@H](Cc2ccccc2)C(=O)N[C@@H](CCc2ccccc2)C(=O)N[C@H](Cc2ccccc2)C(=O)N(C)[C@H](C)C(=O)N[C@@H](CC(C)C)C(=O)N2CCC[C@H]2C(=O)O[C@@H]1C,-5.58
CCC[C@H]1NC(=O)[C@@H](NC(=O)[C@@H](CC(C)C)N(C)C(=O)[C@@H]2CCCN2C(C)=O)[C@@H](C)OC(=O)[C@@H]2CCCN2C(=O)[C@H](CC(C)C)NC(=O)[C@@H](C)N(C)C(=O)[C@@H](Cc2ccccc2)NC(=O)[C@H](Cc2ccc(OC)cc2)NC1=O,-5.76
CC(=O)N1CCC[C@H]1C(=O)N[C@@H]1C(=O)N(C)[C@H](CC(C)C)C(=O)N(C)[C@H](CC(C)C)C(=O)N[C@H](CC(C)C)C(=O)N[C@H](CC(C)C)C(=O)N(C)[C@H](C)C(=O)N[C@@H](CC(C)C)C(=O)N2CCC[C@@H]2C(=O)O[C@@H]1C,-5.27
CC(=O)N1CCC[C@H]1C(=O)N(C)[C@H](CC(C)C)C(=O)N[C@@H]1C(=O)N[C@H](Cc2cccc3ccccc23)C(=O)N[C@@H](CCc2ccccc2)C(=O)N[C@H](Cc2ccccc2)C(=O)N(C)[C@H](C)C(=O)N[C@@H](CC(C)C)C(=O)N2CCC[C@H]2C(=O)O[C@@H]1C,-6.65
CC(=O)N[C@@H]1C(=O)N2CCC[C@H]2C(=O)N(C)[C@H](CC(C)C)C(=O)N[C@@H](CC(C)C)C(=O)N(C)[C@@H](CC(C)C)C(=O)N[C@@H](CC(C)C)C(=O)N[C@@H](C)C(=O)N[C@@H](CC(C)C)C(=O)N2CCC[C@@H]2C(=O)O[C@@H]1C,-6.31
CC(=O)N1CCC[C@H]1C(=O)N(C)[C@H](CC(C)C)C(=O)N[C@@H]1C(=O)N[C@H](CC2CCCCC2)C(=O)N[C@@H](Cc2ccccc2)C(=O)N[C@H](Cc2ccc(F)c(F)c2)C(=O)N(C)[C@H](C)C(=O)N[C@@H](CC(C)C)C(=O)N2CCC[C@H]2C(=O)O[C@@H]1C,-5.20
COc1ccc(C[C@@H]2NC(=O)[C@@H](Cc3ccccc3)NC(=O)[C@@H](NC(=O)[C@@H](CC(C)C)N(C)C(=O)[C@@H]3CCCN3C(C)=O)[C@@H](C)OC(=O)[C@@H]3CCCN3C(=O)[C@H](CC(C)C)NC(=O)[C@@H](C)N(C)C(=O)[C@@H](CC(C)C)NC2=O)cc1,-5.81
CCC[C@@H]1NC(=O)[C@@H](CC2CCCCC2)NC(=O)[C@@H](NC(=O)[C@@H](CC(C)C)N(C)C(=O)[C@@H]2CCCN2C(C)=O)[C@@H](C)OC(=O)[C@@H]2CCCN2C(=O)[C@H](CC(C)C)NC(=O)[C@@H](C)N(C)C(=O)[C@@H](CC(C)C)NC1=O,-5.44
CC(=O)N1CCC[C@H]1C(=O)N(C)[C@H](CC(C)C)C(=O)N[C@@H]1C(=O)N[C@H](CC2CCCCC2)C(=O)N[C@@H](CCc2ccccc2)C(=O)N[C@H](Cc2ccccc2)C(=O)N(C)[C@H](C)C(=O)N[C@@H](CC(C)C)C(=O)N2CCC[C@H]2C(=O)O[C@@H]1C,-6.85
CCC[C@H]1NC(=O)[C@@H](NC(=O)[C@@H](CC(C)C)N(C)C(=O)[C@@H]2CCCN2C(C)=O)[C@@H](C)OC(=O)[C@@H]2CCCN2C(=O)[C@H](CC(C)C)NC(=O)[C@@H](C)N(C)C(=O)[C@@H](CC(C)C)NC(=O)[C@H](CC(C)C)NC1=O,-5.47
CCC[C@@H]1NC(=O)[C@@H](Cc2ccc(F)cc2)NC(=O)[C@@H](NC(=O)[C@@H](CC(C)C)N(C)C(=O)[C@@H]2CCCN2C(C)=O)[C@@H](C)OC(=O)[C@@H]2CCCN2C(=O)[C@H](CC(C)C)NC(=O)[C@@H](C)N(C)C(=O)[C@@H](CC)NC1=O,-6.13
CCC[C@H]1NC(=O)[C@H](CC)NC(=O)[C@@H](CC2CCCCC2)NC(=O)[C@@H](NC(=O)[C@@H](CC(C)C)N(C)C(=O)[C@@H]2CCCN2C(C)=O)[C@@H](C)OC(=O)[C@@H]2CCCN2C(=O)[C@H](CC(C)C)NC(=O)[C@@H](C)N(C)C1=O,-5.72
CC[C@H]1NC(=O)[C@@H](NC(=O)[C@@H](CC(C)C)N(C)C(=O)[C@@H]2CCCN2C(C)=O)[C@@H](C)OC(=O)[C@@H]2CCCN2C(=O)[C@H](CC(C)C)NC(=O)[C@@H](C)N(C)C(=O)[C@@H](Cc2ccccc2)NC(=O)[C@H](Cc2ccc(OC)cc2)NC1=O,-5.65
CCC[C@H]1NC(=O)[C@@H](NC(=O)[C@@H](CC(C)C)N(C)C(=O)[C@@H]2CCCN2C(C)=O)[C@@H](C)OC(=O)[C@@H]2CCCN2C(=O)[C@H](CC(C)C)NC(=O)[C@@H](C)N(C)C(=O)[C@@H](CC2CCCCC2)NC(=O)[C@H](CCc2ccccc2)NC1=O,-5.83
CC[C@@H]1NC(=O)[C@@H](Cc2ccc(F)c(F)c2)NC(=O)[C@@H](NC(=O)[C@@H](CC(C)C)N(C)C(=O)[C@@H]2CCCN2C(C)=O)[C@@H](C)OC(=O)[C@@H]2CCCN2C(=O)[C@H](CC(C)C)NC(=O)[C@@H](C)N(C)C(=O)[C@@H](Cc2cccc3ccccc23)NC1=O,-5.81
CCC[C@H]1NC(=O)[C@H](Cc2ccccc2)NC(=O)[C@@H](CC2CCCCC2)NC(=O)[C@@H](NC(=O)[C@@H](CC(C)C)N(C)C(=O)[C@@H]2CCCN2C(C)=O)[C@@H](C)OC(=O)[C@@H]2CCCN2C(=O)[C@H](CC(C)C)NC(=O)[C@@H](C)N(C)C1=O,-5.33
CC(=O)N[C@@H]1C(=O)N2CCC[C@H]2C(=O)N(C)[C@H](CC(C)C)C(=O)N[C@@H](CC(C)C)C(=O)N(C)[C@H](CC(C)C)C(=O)N[C@@H](CC(C)C)C(=O)N[C@@H](C)C(=O)N[C@@H](CC(C)C)C(=O)N2CCC[C@@H]2C(=O)O[C@@H]1C,-5.86
CC[C@H]1NC(=O)[C@H](CC(C)C)NC(=O)[C@@H](CC2CCCCC2)NC(=O)[C@@H](NC(=O)[C@@H](CC(C)C)N(C)C(=O)[C@@H]2CCCN2C(C)=O)[C@@H](C)OC(=O)[C@@H]2CCCN2C(=O)[C@H](CC(C)C)NC(=O)[C@@H](C)N(C)C1=O,-5.29

Repeated from above, the 2 entries with the highest PAMPA:

structure (SMILES),PAMPA (log10 cm/s)
CC(=O)N1CCC[C@H]1C(=O)N(C)[C@H](CC(C)C)C(=O)N[C@@H]1C(=O)N[C@H](CC2CCCCC2)C(=O)N[C@@H](Cc2ccccc2)C(=O)N[C@H](Cc2ccc(F)c(F)c2)C(=O)N(C)[C@H](C)C(=O)N[C@@H](CC(C)C)C(=O)N2CCC[C@H]2C(=O)O[C@@H]1C,-5.20
CC(=O)N1CCC[C@H]1C(=O)N[C@@H]1C(=O)N(C)[C@H](CC(C)C)C(=O)N(C)[C@H](CC(C)C)C(=O)N[C@H](CC(C)C)C(=O)N[C@H](CC(C)C)C(=O)N(C)[C@H](C)C(=O)N[C@@H](CC(C)C)C(=O)N2CCC[C@@H]2C(=O)O[C@@H]1C,-5.27